A short description of data set [1]: In vivo dose escalation, rat (oral).
Data set [2] is described as follows: in vitro. The settings on record: human, hepatocytes.

Consider `Cc1cc(-c2cnc3cc(-c4ccc(N5CCNCC5)cc4)ccn23)c2cc(F)cc(F)c2n1` [Compound 17], for which the peak concentration (Cmax) in data set [1] (3 mg/kg) was determined as 95 ng/mL; in data set [1] (10 mg/kg) it was 294 ng/mL; in data set [1] (30 mg/kg) it was 1390 ng/mL; in data set [1] (100 mg/kg), 3480 ng/mL. Besides, the half-life in data set [1] (3 mg/kg) is 3.78 h; in data set [1] (10 mg/kg), 4.5 h; in data set [1] (30 mg/kg), 6.7 h; in data set [1] (100 mg/kg) it was 15.9 h.
`Cc1cc(-c2cnc3cc(-c4ccc(N5CCNCC5)cc4)ccn23)c2ccccc2n1` [Compound 25] gave a half-life in data set [2] of 4.72 h. The maximum concentration (Cmax) in data set [1] (3 mg/kg) stood at 127 ng/mL; in data set [1] (10 mg/kg), 338 ng/mL; in data set [1] (30 mg/kg), 1740 ng/mL; in data set [1] (100 mg/kg), 2980 ng/mL. Besides, the bioavailability in data set [1] (3 mg/kg) is 45%; in data set [1] (10 mg/kg) it was 42%; in data set [1] (30 mg/kg), 76%; in data set [1] (100 mg/kg), 46%.

As a reminder, the Cmax is the maximum level reached in the sampled fluid or tissue. In general, half-life refers to how long it takes for the measured level to halve. Lower therefore signals fast loss. In general, bioavailability refers to dose-corrected exposure relative to a reference, in per cent.

For the origin of these results see patent publication US20190218214A1, “Inhibition of BMP Signaling Compounds, Compositions and Uses Thereof” (Vanderbilt University, priority 2016, published 2019).
